Experiment: Displacement of Cy3-labeled geldanamycin from HSP90 in Candida albicans clinical isolate 2 cell lysate measured after […] by fluorescence polarization assay
Format: subcellular

SMILES	EC50
COc1ccc(Cn2nc(C(C)(C)C)cc2Nc2cc(O)cc(O)c2C(=O)N2Cc3ccccc3C2)cc1	816 nM
CC(C)n1nccc1Nc1cc(O)cc(O)c1C(=O)N1Cc2ccccc2C1	76 nM
Cn1nccc1Nc1cc(O)cc(O)c1C(=O)N1Cc2cn[nH]c2C1	377 nM
O=C(c1c(O)cc(O)cc1Nc1ccnn1Cc1ccco1)N1Cc2cccnc2C1	80 nM
O=C(c1c(O)cc(O)cc1Nc1ccnn1Cc1cccnc1)N1Cc2cccnc2C1	143 nM
Cn1nc(-c2ccccc2)cc1Nc1cc(O)cc(O)c1C(=O)N1Cc2cccnc2C1	395 nM
Cn1nccc1Nc1cc(O)cc(O)c1C(=O)N1Cc2cccnc2C1	624 nM
O=C(c1c(O)cc(O)cc1Nc1cc(-c2ccccc2)nn1C1CCCCC1)N1Cc2cccnc2C1	59 nM
CC(C)(C)n1nc(-c2ccccc2)cc1Nc1cc(O)cc(O)c1C(=O)N1Cc2cn[nH]c2C1	182 nM
CC(C)(C)n1nc(-c2ccccc2)cc1Nc1cc(O)cc(O)c1C(=O)N1Cc2cccnc2C1	379 nM
COc1ccc(Cn2ncc(-c3ccccc3)c2Nc2cc(O)cc(O)c2C(=O)N2Cc3ccccc3C2)cc1	615 nM
COc1ccc(Cn2ncc(C(C)C)c2Nc2cc(O)cc(O)c2C(=O)N2Cc3ccccc3C2)cc1	147 nM
COc1ccc(Cn2ncc(Cc3ccccc3)c2Nc2cc(O)cc(O)c2C(=O)N2Cc3ccccc3C2)cc1	465 nM
O=C(c1c(O)cc(O)cc1Nc1cc(-c2ccccc2)nn1C1CCCCC1)N1Cc2cn[nH]c2C1	34 nM
Cc1ccc(Cn2nc(C)cc2Nc2cc(O)cc(O)c2C(=O)N2Cc3ccccc3C2)cc1	121 nM
